Here are results for 1 substance from patent publication US5854049.

Assay [1] deals with purified human Glu-plasminogen (American Diagnostica, 98% Glu-type plasminogen) (human) (UniProt P00747).
Assay [2] has the same target. The source holds these as a separate data set.

Consider “rSK (fusion protein with maltose binding protein linked to the amino terminus of nSK)”, for which the amidolytic kinetic parameters of the SK-PAC on S2251: Km (µM), Kcat (S^-1), kcat/Km (µM^-1 S^-1) in assay [1] turned out to be 0.276 µM^-1 S^-1. In assay [2], this substance had a lag phase of plasminogen activation (S2251 hydrolysis, absorption at 405 nm, 21° C.) of 150 s.
